Binding of CDR-mutated scFvs to a peptide of the spike HR2 region

From the AlphaSeq antibody data of Li et al. 2023 (doi:10.1038/s41467-023-39022-2), copy in the FLAb collection.

Antigen: PDVDLGDISGINAS, a 14-residue peptide of the SARS-CoV-2 spike HR2 region.

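The starting antibody came from a phage panning campaign against this peptide. The variants were designed computationally from a first round of random CDR variants and then made and measured. Group labels follow the data file (Ctrl: baseline library sampled from a position-specific scoring matrix, with some repeated check sequences; Rand: our label for a block that the file lists under HC and that is probably the random mutants of the ten best first-round binders; GP: Gaussian process model; GPLM: also part of the Gaussian process libraries; HC: hill climbing; Gen: genetic algorithm; Gibbs: Gibbs sampling; a sequence that several methods proposed may carry one label only). AlphaSeq pools MATa yeast showing the antibodies with MATalpha yeast showing the peptide. Pairs that bind mate more often; barcode pairs of the diploids are counted by sequencing. A regression on co-assayed BCL2-family reference pairs converts the normalised counts of each replicate to an apparent Kd. The assay was run in six technical replicates.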

Each scFv is VH, a (GGGGS)3 linker, VL, as in the parent Ab-14, and differs from it in the CDRs of the heavy chain only.
VH: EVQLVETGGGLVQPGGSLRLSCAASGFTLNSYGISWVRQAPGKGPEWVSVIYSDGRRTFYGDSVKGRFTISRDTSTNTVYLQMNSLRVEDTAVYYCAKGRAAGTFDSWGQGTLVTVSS
VL: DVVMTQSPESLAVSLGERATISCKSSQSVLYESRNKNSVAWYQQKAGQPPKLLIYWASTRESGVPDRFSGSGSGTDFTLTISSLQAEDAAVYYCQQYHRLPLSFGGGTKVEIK

Changes read parent residue, position, new residue, counted from the first residue of the VH shown.
This list holds designs with at most six substitutions.
The read-out is the apparent dissociation constant on a log10 scale (nM): the lower, the stronger.
Replicates are averaged; those with no signal do not enter the mean.
A pair that was not seen in that replicate is written "ND"; this usually means weak binding, but a binder can also be missed.
The authors averaged sequences with at least three values out of six and counted those with two or fewer as poor binders.
The range of this assay differs from that of the first round, and the authors advise against merging the two.
Three control strains display no target. For all heavy chain designs, 1% of the pairings with them gave a signal, with a median of 2.08 and one signal in twenty below 0.84, so weak values seen in few replicates may be background. For each scFv, signals with the empty controls are counted beside the result.

For S31D/G61N/S63F/G103L/D106I [Rand], the assay gave ND, ND, ND, ND, ND, 0.80 (controls 0 of 18). Variant S31Q/Y60W/G61S/A101T/T104F [Rand] showed ND, ND, ND, ND, ND, ND (controls 0 of 18). Variant G26K/R56L/T58Q/A101E [Ctrl] showed ND, ND, ND, ND, ND, ND (controls 0 of 18). Variant N30Q/G61I [Ctrl] showed ND, ND, 1.81, ND, ND, ND (controls 0 of 18). With T28D/L29A/R57M/T104W/D106T [Rand] the result was ND, ND, ND, ND, ND, ND (controls 0 of 18).

Variant A101G/D106K [Ctrl] showed ND, ND, ND, ND, ND, ND (controls 0 of 18). Variant T28S/G103A [Ctrl] gave ND, ND, ND, ND, ND, ND (controls 0 of 18). For T28S/S31E/F105D/S107D [Ctrl], the assay gave ND, ND, ND, ND, ND, ND (controls 2 of 18). Variant F59Y/G61H/A102H [Ctrl] showed ND, ND, ND, ND, ND, ND (controls 0 of 18). With G61K/K65R/A101V [Ctrl] the result was ND, ND, ND, ND, ND, ND (controls 0 of 18).

Variant S31Y/D54Y/G61S/R100M/A102G [Rand] showed ND, ND, ND, ND, ND, ND (controls 0 of 18). For T28S/S31D/G61H [GPLM_Gen], the assay gave 0.30, 0.74, 1.07, 0.45, 0.37, -0.02 (mean 0.49; controls 0 of 18). Variant T28S/S31N/G61S/R100E [GPLM_Gen] showed 0.56, 0.36, ND, 0.96, 1.25, 1.09 (mean 0.84; controls 0 of 18). With G61S/R100E/A101Q [GPLM_Gen] the result was 0.49, 0.39, 0.65, 0.20, 0.56, 0.70 (mean 0.50; controls 1 of 18). With G61A/A101N/S107T [GPLM_Gen] the result was 0.28, 0.17, 0.13, 0.18, 0.34, 0.62 (mean 0.29; controls 1 of 18).

With F59A/G99T/T104Q/D106I [Ctrl] the result was 1.79, ND, ND, ND, ND, ND (controls 0 of 18). With T28S/G61S/S63Q/A101L [GP_Gibbs] the result was -0.28, -0.43, 0.23, 0.22, -0.54, 0.10 (mean -0.12; controls 1 of 18). For G61D/D62W/R100Q/A101L/G103M [Rand], the assay gave ND, ND, ND, ND, ND, ND (controls 0 of 18). Variant F27N/S31D/G61I [GP_HC] showed 0.81, 1.70, ND, ND, 2.22, ND (mean 1.58; controls 0 of 18). Variant F27R/T28K/R100Q/F105D/S107D [Ctrl] showed ND, ND, ND, ND, ND, ND (controls 0 of 18).

Variant T28D/S31A/S63Q/A101T [GP_Gen] gave 0.18, 0.13, 0.15, -0.06, 0.00, 0.10 (mean 0.08; controls 2 of 18). Variant G26S/T28S/G61A/R100S [GPLM_Gen] showed 0.77, 0.95, 0.22, ND, 1.19, ND (mean 0.78; controls 0 of 18). Variant S31D/F59Q/G61I/D106V [GPLM_HC] showed ND, ND, ND, 2.77, ND, ND (controls 0 of 18). Variant G99H/S107K [Ctrl] gave ND, ND, ND, ND, ND, 3.55 (controls 0 of 18). Variant T28D/A101T/T104A/D106K [GP_HC] showed ND, ND, ND, ND, ND, ND (controls 1 of 18).

Variant S31E/G33P/Y52K/G99M/G103V/S107Q [Rand] showed 1.04, 1.19, ND, ND, ND, ND (mean 1.11; controls 0 of 18). For R100E/G103A [Ctrl], the assay gave ND, 0.88, ND, ND, ND, ND (controls 0 of 18). For F27E/N30Q/R56M/A101I/T104D/S107D [Ctrl], the assay gave ND, ND, ND, ND, ND, ND (controls 0 of 18). Variant R56V/R100W/A101T/T104R [Ctrl] gave ND, ND, ND, ND, ND, ND (controls 0 of 18). Variant F27I/S31D/D106H [Ctrl] gave ND, ND, ND, ND, ND, ND (controls 0 of 18).

With N30D/S53A/G61H [GP_Gibbs] the result was 0.25, -0.13, 0.00, -0.21, 0.53, -0.17 (mean 0.05; controls 1 of 18). Variant T28E/G61A/S63D/R100K [GP_Gen] showed 0.50, 0.21, 0.65, 0.14, 0.25, 0.24 (mean 0.33; controls 0 of 18). For N30D/F105A/D106L/S107L [Rand], the assay gave ND, ND, ND, ND, ND, ND (controls 0 of 18). For G61S/V64L/A102G/G103F [Rand], the assay gave ND, ND, ND, ND, ND, ND (controls 0 of 18). For T28N/G61V/S63D/A101Q [GPLM_Gibbs], the assay gave ND, 1.90, 0.96, 0.90, 1.41, ND (mean 1.29; controls 0 of 18).

With F27T/K65S/R100S [Ctrl] the result was ND, ND, ND, ND, ND, ND (controls 1 of 18). For T28D/G61K/R100N/S107A [GPLM_Gibbs], the assay gave 0.28, -0.10, -0.06, 0.22, -0.06, 0.13 (mean 0.07; controls 0 of 18). With R56K/G61A/S63K [Ctrl] the result was 0.96, 0.68, 0.51, 0.53, 1.85, 1.16 (mean 0.95; controls 0 of 18). Variant F27V/T28K/R100A [Ctrl] showed ND, ND, ND, ND, ND, ND (controls 1 of 18). For R100K/A101H/S107T [GP_Gen], the assay gave 1.39, ND, 2.09, ND, ND, ND (mean 1.74; controls 1 of 18).

With G26N/S107V [Ctrl] the result was ND, ND, ND, ND, ND, ND (controls 0 of 18). Variant T28S/S63N/R100E/S107A [GPLM_Gibbs] showed 0.02, 0.46, -0.14, -0.52, 0.27, 0.19 (mean 0.05; controls 0 of 18). Variant S31K/G61N/S63K/R100E/A101F/S107D [Ctrl] showed ND, ND, ND, ND, ND, ND (controls 2 of 18). With T28S/N30K/S53A/S63N/R100E [GP_Gibbs] the result was -0.76, -1.16, 0.22, ND, -1.37, -0.65 (mean -0.74; controls 0 of 18). Variant T28K/A101E [GP_Gen] gave ND, ND, ND, ND, ND, ND (controls 0 of 18).

For N30D/G61A/S107R [GPLM_Gen], the assay gave ND, 1.33, 1.51, 1.67, 0.99, ND (mean 1.38; controls 0 of 18).

Excerpt, the final 5 entries:

T28S/S63N/R100E/S107A [GPLM_Gibbs]: 0.02, 0.46, -0.14, -0.52, 0.27, 0.19 (mean 0.05; controls 0 of 18).
S31K/G61N/S63K/R100E/A101F/S107D [Ctrl]: ND, ND, ND, ND, ND, ND (controls 2 of 18).
T28S/N30K/S53A/S63N/R100E [GP_Gibbs]: -0.76, -1.16, 0.22, ND, -1.37, -0.65 (mean -0.74; controls 0 of 18).
T28K/A101E [GP_Gen]: ND, ND, ND, ND, ND, ND (controls 0 of 18).
N30D/G61A/S107R [GPLM_Gen]: ND, 1.33, 1.51, 1.67, 0.99, ND (mean 1.38; controls 0 of 18).